Test system: Ceriodaphnia dubia
Details: in vivo

With “tributyl(methyl)ammonium dibutyl phosphate [[N4441][DBP]]” the “Number of surviving Daphnia” value was 10.

From US11760766B2, “Ionic liquids containing quaternary ammonium and phosphonium cations, and their use as environmentally friendly lubricant additives” (UT-Battelle, LLC, priority 2020, dated 2023)
